# Measurements: PubChem BioAssay (EPA / NIEHS)
# The other results are listed elsewhere or left out. Records with an inconclusive call do not appear. Activity calls are given as the source filed them. Rule for the calls: active = hit-call score of the fitted dose curve at least 0.9, where 1 is the maximum; inactive = score below 0.9.
# Test: ATG_M_61_TRANS: Attagene TRANS-FACTORIAL HepG2 Assay for M61 Transcription Factor (Internal Marker) (AID 2282988)
# Settings: HepG2 Attagene TRANS M61 internal marker reporter
# Method: ATG_TRANS is a cell-based, multiplexed-readout assay that uses HepG2, a human liver cell line, with measurements taken at 24 hours after chemical dosing in a 24-well plate.ATG_M_61_TRANS is one of 30 assay component(s) measured or calculated from the ATG_TRANS assay. It is designed to make measurements of mRNA induction, a form of inducible reporter, as detected with fluorescence intensity signals by Reverse transcription polymerase chain reaction (RT-PCR) and Capillary electrophoresis technology.Data from the assay component ATG_M_61_TRANS was analyzed into 1 assay endpoint. This assay endpoint, ATG_M_61_TRANS, was analyzed in the positive analysis fitting direction relative to DMSO as the negative control and baseline of activity. Using a type of inducible reporter, measures of mRNA for gain-of-signal activity can be used to understand the background control at the transcription factor-level as they relate to the gene . Furthermore, this assay endpoint can be referred to as a secondary readout, because this assay has produced multiple assay endpoints where this one serves a background control function. To generalize the intended target to other relatable targets, this assay endpoint is annotated to the background measurement intended target family, where the subfamily is internal marker.
# Human liver HepG2 cells are transiently transfected with multiple reporter transcription units (MRTUs) in 6-well plates using FuGene 6 reagent (Roche; 3 ml FuGene/1 mg DNA). The MRTU constructs are regulated by a cis-regulating element (promoter). […] A major difference between the CIS and TRANS system is that in CIS activities of endogenous TFs are measured, whereas the TRANS assay evaluates changes in activities of exogenous, chimeric NR-Gal4 proteins. […] At the end of 24 hour incubation, total RNA was isolated using TriZol reagent (Invitrogen). The isolated RNA is then reverse-transcribed using oligo(dT) primer and Mo-MLV reverse transcriptase (Invitrogen) with DNAse I (Ambion) treatment for 30 min. The one-tenth of the produced cDNA was amplified by PCR using Taq DNA polymerase (Invitrogen) and two reporter sequence-specific primers. The PCR products were fluorescently labeled by primer extension with 6-arboxyfluorescein (6-FAM) 5'-labeled reporter sequence-specific primer (2 min at 95 C, 20 s at 68 C and 10 min at 72 C) and these products were digested with 5U of HpaI (New England Biolabs) for 2h at 37 C. The fragments were purified using Qiaquick PCR columns (Qiagen), analyzed on an ABI 3130xL genetic analyzer (Applied Biosystems) with peak positions identified by using a set of X-rhodamine (ROX)-labeled MapMarker1000 molecular weight standards (BioVentures). The raw capillary electrophoresis data was processed using Attagraph software (Attagene).
row,Structure (SMILES),outcome
1,Cc1cccc([N+](=O)[O-])c1[N+](=O)[O-],inactive
2,CC(C)N(CCO)C(C)C,inactive
3,Cc1ccc([N+](=O)[O-])cc1[N+](=O)[O-],inactive
4,COP(C)(=O)OC,inactive
5,N#CBr,inactive
6,Cc1ccc([N+](=O)[O-])c([N+](=O)[O-])c1,inactive
7,Cc1c([N+](=O)[O-])cccc1[N+](=O)[O-],inactive
